The results in this text go back to PMC9972884 (Biochemistry, 2009).

The chains behind the UniProt entries cited, without tags or fusion partners. Residues count along the entry.
UniProt P37231, 29-505: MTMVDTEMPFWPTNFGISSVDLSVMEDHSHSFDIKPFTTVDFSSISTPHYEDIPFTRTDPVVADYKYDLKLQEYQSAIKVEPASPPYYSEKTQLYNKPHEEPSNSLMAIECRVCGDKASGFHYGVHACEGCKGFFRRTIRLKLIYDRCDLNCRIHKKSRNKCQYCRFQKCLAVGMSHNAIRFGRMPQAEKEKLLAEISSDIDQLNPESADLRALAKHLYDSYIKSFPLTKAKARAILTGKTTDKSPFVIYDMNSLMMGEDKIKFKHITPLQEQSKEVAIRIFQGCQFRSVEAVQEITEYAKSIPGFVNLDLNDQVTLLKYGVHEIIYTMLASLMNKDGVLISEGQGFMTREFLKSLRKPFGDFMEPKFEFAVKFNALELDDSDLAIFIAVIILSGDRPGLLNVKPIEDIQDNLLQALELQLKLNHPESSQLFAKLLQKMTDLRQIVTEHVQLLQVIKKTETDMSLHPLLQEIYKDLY

The experiment addresses PPARγ (Homo sapiens, UniProt P37231). The format is cell-based.

On to `CCCCC/C=C(\C/C=C\CCCCCCCC(=O)O)[N+](=O)[O-]` [12-NO2-linoleic acid, (9Z,12E)-12-nitrooctadeca-9,12-dienoic acid], for which the “EC50 fold lower than those of 9/10-NO2-LA and 13-NO2-LA” value is on record as “more than 10 fold”.
